The experiment has as its target PDE-5 (UniProt O76074). Kind of experiment: In vitro PDE inhibitory activity against PDE5 (batch method or scintillation proximity assay). The experiment is classed as biochemical, human. The settings on record: representative compounds. (Scintillation proximity formats need no separation of bound from free tracer.)
As usually defined, the IC50 is the midpoint of a concentration-inhibition curve. As for `CCN(C)c1nc(Nc2cc(C)ccn2)c2c(n1)c(C(=O)NS(C)(=O)=O)nn2CCOCC(F)F`, the IC50 is 2.88 nM.
As to `CCOCCn1nc(C(=O)O)c2nc(N(C)C)nc(NC3CCCCC3)c21`, the IC50 turned out to be 86.6 nM.
In the case of `CCN(C)c1nc(Nc2cc(C)ccn2)c2c(n1)c(C(=O)NS(C)(=O)=O)nn2CCOC1CCC1` it was 0.591 nM; in that of `CCOCCn1nc(C(=O)O)c2nc(N3CCCC3)nc(NC3CCCCC3)c21`, 94.7 nM; in that of `CCOCCn1nc(C(=O)NS(C)(=O)=O)c2nc(N(C)CC)nc(Nc3cccc(C)c3)c21`, 0.198 nM.
Next, `Cc1ccnc(Nc2nc(N(C)C(C)C)nc3c(C(=O)NS(C)(=O)=O)nn(CCOC4CCC4)c23)c1`: 0.324 nM.
In the case of `CCNc1nc(NC2CCCCC2)c2c(n1)c(C(=O)O)nn2CCOCC` it was 47.1 nM.
On to `CCOCCn1nc(C(=O)O)c2nc(N(CC)CC)nc(NC3CCCCC3)c21`, for which the IC50 is 8 nM.
Next, `CCCN(C)c1nc(Nc2cc(C)ccn2)c2c(n1)c(C(=O)NS(C)(=O)=O)nn2CCOCC`: 1.55 nM; `CCOCCn1nc(C(=O)NS(=O)(=O)CC)c2nc(N(C)C)nc(Nc3cc(C)ccn3)c21`: 1.16 nM; `CCOCCn1nc(C(=O)NS(C)(=O)=O)c2nc(N(C)CCOC)nc(Nc3cc(C)ccn3)c21`: 4.68 nM.
With `CCOCCn1nc(C(=O)O)c2nc(N(C)C(C)C)nc(NC3CCCCC3)c21`, the concentration for half-maximal inhibition (IC50) worked out at 17.9 nM.
In the case of `CCN(C)c1nc(Nc2cccc(C)c2)c2c(n1)c(C(=O)NS(C)(=O)=O)nn2CCOCC(F)(F)F` it was 0.101 nM; in that of `CCOCCn1nc(C(=O)NS(=O)(=O)CC)c2nc(N(CC)CC)nc(Nc3cc(C)ccn3)c21`, 0.162 nM; in that of `CCOCCn1nc(C(=O)NS(=O)(=O)CC)c2nc(N(C)CC)nc(Nc3cc(C)ccn3)c21`, 0.341 nM.
In the case of `CCOCCn1nc(C(=O)O)c2nc(N(C)CC)nc(NC3CCCCC3)c21` it was 17.4 nM; in that of `Cc1ccnc(Nc2nc(N(C)C(C)C)nc3c(C(=O)O)nn(CCOC4CCC4)c23)c1`, 0.776 nM.
Next, `CCN(C)c1nc(Nc2cc(C)ccn2)c2c(n1)c(C(=O)O)nn2CCOC1CCC1`: 2.54 nM; `CCOCCn1nc(C(=O)NS(C)(=O)=O)c2nc(N(CC)CC)nc(Nc3cc(C)ccn3)c21`: 0.513 nM; `CCN(C)c1nc(Nc2ccc(F)c(C)c2)c2c(n1)c(C(=O)NS(C)(=O)=O)nn2CCOCC(F)(F)F`: 0.056 nM.

Values taken from patent publication US7572799B2, “Pyrazolo[4,3-d]pyrimidines as Phosphodiesterase Inhibitors” (Pfizer Inc, priority 2003, dated 2009).
